Binding of CDR-mutated scFvs to a peptide of the spike HR2 region

Data: MIT Lincoln Laboratory AlphaSeq set, Li et al. 2023, doi:10.1038/s41467-023-39022-2, as distributed in FLAb.

Target: peptide PDVDLGDISGINAS, taken from heptad repeat 2 (HR2) of SARS-CoV-2 spike.

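The parent was found by panning a naive human phage display library on the peptide. This is the validation round: designs drawn from the data on random variants, tested in the same kind of assay. Group labels follow the data file (Ctrl: baseline library sampled from a position-specific scoring matrix, with some repeated check sequences; En: ensemble of fine-tuned language models; GP: Gaussian process model; HC: hill climbing; Gen: genetic algorithm; Gibbs: Gibbs sampling; a sequence that several methods proposed may carry one label only). In AlphaSeq, yeast of one mating type display the scFv and yeast of the other type display the target. Binding brings cells together so that they mate, and sequencing counts the barcode pairs among the diploids. A regression on co-assayed BCL2-family reference pairs converts the normalised counts of each replicate to an apparent Kd. Mating was done six times.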

The variants keep the heavy chain, the linker and the frameworks of Ab-14 (scFv order VH, a (GGGGS)3 linker, VL).
VH: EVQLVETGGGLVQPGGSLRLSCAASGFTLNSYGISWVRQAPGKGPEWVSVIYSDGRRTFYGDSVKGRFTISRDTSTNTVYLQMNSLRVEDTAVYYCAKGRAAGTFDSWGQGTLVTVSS
VL: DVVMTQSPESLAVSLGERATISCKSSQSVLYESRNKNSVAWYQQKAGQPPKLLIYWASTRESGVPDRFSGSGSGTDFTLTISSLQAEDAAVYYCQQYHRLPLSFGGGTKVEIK

Variants are written as CDR1, CDR2 and CDR3 of the light chain (limits as in the source). Parent: KSSQSVLYESRNKNSVA, WASTRES, QQYHRLPLS.
This list holds designs with more than six substitutions.
Scale: log10 of Kd in nM, estimated from mating counts; low values are strong binders.
An entry "nd" has no value in the source: the pair was not observed among the diploids in that replicate. This suggests poor binding but is not conclusive.
Background: pairings of all light chain designs with three empty control strains gave a value in 4% of cases (median 2.64, 5th percentile 1.59). Values in that range, when seen in few replicates, are hard to tell from nonspecific mating.

The variant KVQMLWCMWSRNLNSVA / HASTRES / QQYHRLPLS [GP_Gibbs] showed nd, 2.30, nd, 3.02, 1.37, nd. With KLYQMTGLESHAKNSLA / DANRRED / QQYHRLPLS [En_HC] the result was 0.11, -0.01, -0.15, -0.33, -0.03, -0.06. With HLQEQSFFGQKDYSSMA / NTECKYN / QQYARLPLM [En_Gibbs] the result was 1.03, 0.97, 0.46, 0.58, 0.52, 0.87. The variant KVSMLHDYESRNKNSVA / EASTRES / QDYHRLPLS [GP_Gibbs] showed 0.13, -0.01, -0.21, 0.23, -0.01, 0.00. The variant RIDSVWEMLTNRAQNVA / NATTVIA / QQYMRLPLV [En_Gibbs] showed 0.47, 0.14, -0.01, 0.31, 0.29, 0.55. The variant KLSILGLHQSIDKKSIA / ERSTREN / QQYHRLPLS [En_HC] gave 0.51, 0.61, 0.47, 0.60, 0.59, 0.72. The variant KLRQVTGYESYLRNSVA / QTSTRAS / QDYHRLPLS [En_HC] showed 1.52, 1.49, 0.82, 0.96, 1.41, 1.45.

The variant TISMSVNMTSHGRNSVA / QAEMRES / QQYDRLPLS [En_HC] gave 1.03, 1.61, 1.00, 1.99, 1.69, 1.13. For TLSQLTGHMSMSKNNVA / EMETREN / QQYDRLPLS [En_Gen], the assay gave 1.10, nd, 0.30, 0.38, nd, 1.96. The variant KLRQVTEWESFNKNSVA / QTETREN / QDYDRLPLS [En_HC] gave nd, nd, nd, nd, nd, nd. The variant SFERGLAGSSLVQNNVA / EGKTLWE / QQYMRLPLA [En_Gibbs] gave 0.08, -0.09, -0.09, 0.00, -0.09, 0.04. For HITYGMMVHGRHGSSIA / QAEERAK / QQYDRLPLI [En_Gen], the assay gave 1.13, 1.29, 1.70, 1.57, 1.99, 1.84. The variant KLSNSYEYESRMMNSVA / NASTRLE / QQYHRLPLS [GP_Gibbs] showed 0.06, 0.22, 0.34, -0.08, 0.27, 0.41. For KLSTSVMLESRNVNSVA / SASTRSE / QQYHRLPLS [GP_Gibbs], the assay gave -0.10, -0.17, -0.34, -0.59, -0.47, -0.27.

The variant TIGSATLEESRNKNSVA / EMSLREN / QSYNRLPLS [En_HC] gave nd, nd, 2.91, 2.65, nd, 2.91. With MISQLYNMGQFAINSVA / QASQRCE / QQYDRLPLQ [En_Gen] the result was 1.38, 1.12, nd, 1.63, nd, 0.84. The variant ALAYTLHQNQSNQSNIA / QVQEREV / QQYYRLPLG [En_Gibbs] gave nd, 2.71, nd, nd, nd, nd. With HQSQSVPMGERNKNSVA / MASYRES / QQYHRLPLS [GP_Gibbs] the result was 1.61, 1.22, 1.63, 1.08, 1.18, 0.96. The variant TLTQVQGMQSHNKNSVA / DLSTRGS / QQYHRLPLS [En_HC] showed 0.76, 0.85, 0.31, 0.48, 0.51, 0.75. The variant GLSDQETEQIAHANSIA / DRDERDV / QQYSRLPLI [En_Gibbs] showed 1.45, 1.06, 0.46, 0.76, 0.55, 0.57. The variant KVSIFMWTMDNANSHIA / NMAEERT / QQYQRLPLS [En_Gibbs] gave nd, 3.59, nd, nd, nd, nd.

The variant SISMLLNFESKMGNNVA / QMETRIN / QQYDRLPLS [En_Gen] gave 1.19, 1.13, 1.91, 1.58, 0.73, 1.40. For TLSQNMDMLSRNVNSVA / DLTTRGN / QQYHRLPLS [En_HC], the assay gave 0.11, 0.08, -0.24, 0.07, -0.27, -0.14. With TLMMDPTEQRDSKHAVA / DNNQRDR / QQYHRLPLS [En_Gibbs] the result was 1.54, 1.10, 1.65, 1.69, 1.58, 1.11. For NVGQLMDGESRNKNSVA / HQSTRED / QHYHRLPLS [En_HC], the assay gave 0.81, 0.71, 0.41, 0.27, 0.26, 0.47. The variant KLSQVTEYESHNKNNVA / DLTTRGS / QDYHRLPLS [En_HC] gave 0.16, 0.04, -0.05, -0.22, 0.28, -0.05. The variant KISQAVNYLSRVMNSVA / DNSTRGS / QQYFRLPLS [En_HC] showed 1.04, 0.77, 0.63, 0.08, 0.56, 0.51. The variant TISMHTSLFSQTINNVA / EVSTRET / QQYDRLPLI [En_Gen] showed nd, nd, nd, nd, 2.28, nd.

With MISQLMNFGTFAINSVA / QASLRCN / QQYDRLPLT [En_Gen] the result was nd, nd, nd, nd, nd, nd. The variant FMEMDFQENSGRGSSIA / SEEVKTR / QHYGRLPLS [En_Gibbs] gave nd, nd, nd, nd, nd, nd. The variant TIAQSMLYLNNLKNSIA / QAETRES / QQYHRLPIS [En_HC] gave 0.63, 1.01, 0.87, 0.82, 0.88, 1.25. The variant KISMLHNQTFNISNNVA / EMVTREK / QQYNRLPLS [En_Gen] gave 2.58, nd, nd, 2.33, 3.50, 2.57. The variant HMSMLTLSGMRHTNSVA / QMTTREN / QQYDRLPLA [En_Gen] gave -0.24, 0.45, -0.07, 0.52, 0.10, 0.16. With KSSESVLDESNNKNHVA / SASTRES / QFYCRLPLS [Ctrl] the result was 2.46, 1.84, nd, 2.92, 2.52, 2.05. The variant KIYQFGLNHQTSTNSIA / DQECREA / QQYDRLPLS [En_Gen] gave 0.98, 0.81, 0.86, 0.83, 0.86, 1.02.

The variant MVSQLMLWGLHTKNSIA / EAQTRIN / QQYDRLPLF [En_Gen] showed 1.36, 3.11, 1.41, nd, 3.09, 2.17.

The 2 strongest on average among those seen in every replicate, once more:

CDR-L1	CDR-L2	CDR-L3	group	replicates, log10 nM
KLSTSVMLESRNVNSVA	SASTRSE	QQYHRLPLS	GP_Gibbs	-0.10, -0.17, -0.34, -0.59, -0.47, -0.27
KLYQMTGLESHAKNSLA	DANRRED	QQYHRLPLS	En_HC	0.11, -0.01, -0.15, -0.33, -0.03, -0.06

Of ten entries with the parent sequence, four were seen in most replicates (averages 0.34 to 2.37), three in one and three in none, so single entries are noisy.
The range of this assay differs from that of the first round, and the authors advise against merging the two.
In the paper, a design with two or fewer of six values counts as a poor binder.